Data as given in ChEMBL document CHEMBL1138481, “Compounds binding to the S2-S3 pockets of thrombin” (J Med Chem, 2009).

Experiment: Inhibition of human alpha thrombin by surface plasmon resonance assay

SMILES: CCCNC(=O)[C@@H]1CCCN1C(=O)[C@H](N)C(c1ccccc1)c1ccccc1
- Kd: 3.1 µM
